Data: PubChem BioAssay AID686940 (The Scripps Research Institute Molecular Screening Center, 2013)
Only a part is listed here, and it is no random draw. Activity calls are given as the source filed them.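 Rule for the calls: active = inhibition above a per-plate cutoff, mean inhibition of test wells between control levels plus 3 SD (cut at about 38% in these data); inactive = the rest.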

The chains behind the UniProt entries cited, without tags or fusion partners.
UniProt P24468, whole entry: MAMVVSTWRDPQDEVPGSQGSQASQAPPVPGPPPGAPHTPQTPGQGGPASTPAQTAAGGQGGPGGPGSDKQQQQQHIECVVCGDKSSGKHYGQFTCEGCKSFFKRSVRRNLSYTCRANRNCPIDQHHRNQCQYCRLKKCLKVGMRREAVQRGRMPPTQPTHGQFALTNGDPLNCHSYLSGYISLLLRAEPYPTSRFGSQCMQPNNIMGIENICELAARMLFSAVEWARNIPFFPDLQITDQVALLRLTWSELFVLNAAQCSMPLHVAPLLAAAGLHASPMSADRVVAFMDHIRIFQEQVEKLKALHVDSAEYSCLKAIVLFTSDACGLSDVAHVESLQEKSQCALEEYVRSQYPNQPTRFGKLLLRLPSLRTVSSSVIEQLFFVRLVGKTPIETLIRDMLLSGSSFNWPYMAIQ

Biological target: COUP transcription factor 2 (Homo sapiens) (UniProt P24468)
Experiment: COUP-TFII reporter suppression in human cells – cell-based, luciferase reporter, HEK293T, luminescence, primary screen (AID 686940);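 note: cells cotransfected with COUP-TFII expression vector driving the NGFI-A reporter; 0% = median of COUP-TF2 test wells and 100% = reporter-only cells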
Details: HEK293T NGFI-A luciferase reporter, at 8.6 µM, active compounds read high

| Structure (SMILES) | inhibition |
| --- | --- |
| CN1CCC(Nc2ccc(F)c(Cl)c2)CC1 | inactive: -9.39% |
| CCOc1ncccc1C(=O)NCC1(N2CCOCC2)CCCCC1 | inactive: -4.32% |
| CCCOc1ccc(C(=O)NCC2(N(C)C)CCCCC2)cc1 | inactive: -9.57% |
| O=c1[nH]c2ccccc2n1C1CCN(C(c2cc3ccccc3o2)c2nnnn2C2CCCC2)CC1 (stereo not given) | inactive: -3.53% |
| O=C(O)C1(Nc2ccccc2)CCN(Cc2ccccc2)CC1 | inactive: 8.41% |
| NN(c1ccccc1)C1CCN(CCc2ccccc2)CC1 | inactive: 10.6% |
| CC(C)(C)OC(=O)N1CCC(Nc2ccccc2)CC1 | inactive: 3.37% |
| CCC(CO)(C(=O)OC1CN2CCC1CC2)c1ccccc1 (stereo not given) | inactive: -11% |
| COc1cccc(C(c2nnnn2C2CCCC2)N2CCC(n3c(=O)[nH]c4ccccc43)CC2)c1OC (stereo not given) | inactive: 19% |
| COc1cc(OC)cc(C(=O)NCC2(N3CCOCC3)CCCCC2)c1 | inactive: 6.22% |
| COc1cccc(C(=O)N(c2cc(C)cc(C)c2)C2CCN(C(=O)OC(C)(C)C)CC2)c1 | inactive: 18.2% |
| CN1CCC(Nc2ccc(Cl)cc2)CC1 | inactive: 13.2% |
| O=c1[nH]c2ccccc2n1C1CCN(C(c2ccnc3ccccc23)c2nnnn2C2CCCCC2)CC1 (stereo not given) | inactive: -4.39% |
| COc1cc(OC)cc(C(=O)NCC2(N3CCCCC3)CCCCC2)c1 | inactive: -11.6% |
| CCC(c1nnnn1C1CCCCC1)N1CCC(n2c(=O)[nH]c3ccccc32)CC1 (stereo not given) | inactive: 11.1% |
| CC(=O)N(c1ccccc1)C1CCNCC1 | inactive: -6.7% |
| COc1cccc(C(c2nnnn2C2CCCCC2)N2CCC(n3c(=O)[nH]c4ccccc43)CC2)c1OC (stereo not given) | inactive: 34.8% |
| Cc1ccc(NC2(C#N)CCN(Cc3ccccc3)CC2)cc1 | inactive: -23.1% |
| Fc1ccccc1NC1CCN(Cc2ccccc2)CC1 | inactive: 2.65% |
| Cc1ccc(C(=O)NCC2(N3CCCCC3)CCCCC2)o1 | inactive: 6.35% |
| CC(C)(C)n1nnnc1C(c1ccnc2ccccc12)N1CCC(n2c(=O)[nH]c3ccccc32)CC1 (stereo not given) | inactive: -3.05% |
| COc1ccc(C(c2nnnn2C2CCCCC2)N2CCC(n3c(=O)[nH]c4ccccc43)CC2)cc1 (stereo not given) | inactive: -21.7% |

| Structure (SMILES) | inhibition |
| --- | --- |
| CCN1CCC(Nc2cccc(F)c2)CC1 | inactive: 0.02% |
| Cc1ccccc1NC1(C#N)CCN(Cc2ccccc2)CC1 | inactive: -7.28% |
| Cn1c(=O)[nH]cc(N(CCCl)CCCl)c1=O | inactive: -15.3% |
| CN(C)c1ccc(C(=O)NCC2(N3CCCCC3)CCCCC2)cc1 | inactive: 13.4% |
| O=C(NCC1(N2CCCCC2)CCCCC1)c1ccco1 | inactive: 16.2% |
| CC(C)(C)OC(=O)N1CCC(N(C(=O)c2ccccc2)c2ccc(Cl)cc2)CC1 | inactive: 19.1% |
| N#Cc1ccc(C(=O)NCC2(N3CCCCC3)CCCCC2)cc1 | inactive: 16% |
| CCCN1CCC(Nc2cc(OC)cc(OC)c2)CC1 | inactive: -11.2% |
| O=c1[nH]c2ccccc2n1C1CCN(C(c2ccccc2)c2nnnn2C2CCCC2)CC1 (stereo not given) | inactive: 0.52% |
| Cc1cc(N(CCCl)CCCl)ccc1C=O | inactive: -12.2% |
| c1ccc(CN2CCC(Nc3ccccc3)CC2)cc1 | inactive: 0.9% |
| C/C(N)=N\P(=O)(Oc1ccccc1)Oc1ccccc1 | inactive: 0.51% |
| CN(C)C1(CNC(=O)c2cccc(C#N)c2)CCCCC1 | inactive: -0.36% |
| CC(C)(C)n1nnnc1C(c1cccc2ccccc12)N1CCC(n2c(=O)[nH]c3ccccc32)CC1 (stereo not given) | inactive: -9.99% |
| O=C(NCC1(N2CCOCC2)CCCCC1)c1cc(Br)ccc1Cl | inactive: -2.52% |
| COc1cc(C(=O)NCC2(N3CCOCC3)CCCCC2)cc(OC)c1C | inactive: -17.9% |
| CCCCn1nnnc1C(c1ccccc1)N1CCC(n2c(=O)[nH]c3ccccc32)CC1 (stereo not given) | inactive: -5.42% |
| O=c1[nH]c2ccccc2n1C1CCN(C(c2ccnc3ccccc23)c2nnnn2C2CCCC2)CC1 (stereo not given) | inactive: 6.08% |
| COc1ccc(C(=O)NCC2(N3CCOCC3)CCCCC2)cc1OC | inactive: -0.65% |
| NC(=O)C1(Nc2ccccc2)CCN(Cc2ccccc2)CC1 | inactive: 0.35% |
| O=c1[nH]c2ccccc2n1C1CCN(C(c2cccs2)c2nnnn2C2CCCCC2)CC1 (stereo not given) | inactive: 17% |
| N/C(=N\O)c1c(N)no[n+]1[O-] | inactive: 9.71% |

| Structure (SMILES) | inhibition |
| --- | --- |
| COc1cccc(C(c2nnnn2C(C)(C)C)N2CCC(n3c(=O)[nH]c4ccccc43)CC2)c1OC (stereo not given) | inactive: 11.3% |
| CCOC(=O)N1CCC(Nc2ccc(C)cc2)CC1 | inactive: 6.94% |
| CCCCn1nnnc1C(c1cccc(OC)c1OC)N1CCC(n2c(=O)[nH]c3ccccc32)CC1 (stereo not given) | inactive: 20.1% |
| O=c1[nH]c2ccccc2n1C1CCN(C(c2cccs2)c2nnnn2C2CCCC2)CC1 (stereo not given) | inactive: -5.55% |
| O=C(OC1CN2CCC1CC2)C1c2ccccc2C=Cc2ccccc21 (stereo not given) | inactive: 1.63% |
| CN(C)c1cccc(C(=O)NCC2(N3CCCCC3)CCCCC2)c1 | inactive: 8.33% |
| COC(=O)C1(Nc2ccccc2)CCN(Cc2ccccc2)CC1 | inactive: -14.5% |
| COc1ccc(CN(CCCl)CCCl)cc1Cl | inactive: -4.36% |
| CC(C)c1ccc(NC2CCN(C(=O)OC(C)(C)C)CC2)cc1 | inactive: -30.3% |
| CCCCn1nnnc1C(c1ccnc2ccccc12)N1CCC(n2c(=O)[nH]c3ccccc32)CC1 (stereo not given) | inactive: 7.14% |
| CCC(c1nnnn1C(C)(C)C)N1CCC(n2c(=O)[nH]c3ccccc32)CC1 (stereo not given) | inactive: -6.99% |
| O=C(NCC1(N2CCOCC2)CCCCC1)c1cc(F)c(F)cc1Cl | inactive: -24.6% |
| COc1cc(OC)c(C(=O)NCC2(N(C)C)CCCCC2)cc1OC | inactive: 10.4% |
| O=C(NCC1(N2CCCCC2)CCCCC1)c1cncc(Br)c1 | inactive: 6.92% |
| CN1CCC(Nc2cccc(F)c2)CC1 | inactive: 6.97% |
| CCCOc1ccc(C(=O)NCC2(N(C)C)CCCCC2)cc1OC | inactive: 1.54% |
| Cc1ccc(C(=O)NCC2(N(C)C)CCCCC2)o1 | inactive: -7.39% |
| COc1ccc(C(c2nnnn2C2CCCC2)N2CCC(n3c(=O)[nH]c4ccccc43)CC2)cc1 (stereo not given) | inactive: -6.58% |
| O=C(NCC1(N2CCCCC2)CCCCC1)c1ccc(OC(F)F)cc1 | inactive: -4.8% |
| CC(C)(C)n1nnnc1C(c1ccccc1OC(F)(F)F)N1CCC(n2c(=O)[nH]c3ccccc32)CC1 (stereo not given) | inactive: -1.04% |
| CSc1ccc(C(=O)NCC2(N3CCOCC3)CCCCC2)cc1 | inactive: 4.28% |
| O=C(NCC1(N2CCCCC2)CCCCC1)c1cccc([N+](=O)[O-])c1 | inactive: -10.2% |

| Structure (SMILES) | inhibition |
| --- | --- |
| N#CC1(Nc2ccccc2)CCN(CCc2ccccc2)CC1 | inactive: 12.3% |
| O=c1[nH]c2ccccc2n1C1CCN(C(c2ccccc2OC(F)(F)F)c2nnnn2C2CCCC2)CC1 (stereo not given) | inactive: 0.69% |
| CCN1CCC(Nc2ccc(Cl)cc2)CC1 | inactive: -24.2% |
| O=C(NCC1(N2CCCCC2)CCCCC1)c1cccc(C(F)(F)F)c1 | inactive: 0.5% |
| CCCCn1nnnc1C(c1cccc2ccccc12)N1CCC(n2c(=O)[nH]c3ccccc32)CC1 (stereo not given) | inactive: 6.6% |
| CN1CCN(CCOC(=O)C(O)(c2ccccc2)c2ccccc2)CC1 | inactive: -12.5% |
| COc1ccc(NC2CCN(C(=O)OC(C)(C)C)CC2)cc1 | inactive: 5.76% |
| CC(C)c1ccc(C(=O)NCC2(N3CCOCC3)CCCCC2)cc1 | inactive: -5.19% |
| COc1cc(C(=O)NCC2(N3CCCCC3)CCCCC2)ccc1OC(F)F | inactive: -7.51% |
| O=C(NCC1(N2CCOCC2)CCCCC1)c1cc(=O)[nH]c2ccccc12 | inactive: 13.4% |
| CCOc1ccc(C)cc1CN(CCCl)CCCl | inactive: -12.1% |
| O=C1CCN(Cc2ccccc2)CC1 | inactive: 3.66% |
| CC(C)(C)n1nnnc1C(c1ccccc1)N1CCC(n2c(=O)[nH]c3ccccc32)CC1 (stereo not given) | inactive: 14.5% |
| COc1ccc(NC2CCN(CCc3ccccc3)CC2)c(OC)c1 | inactive: 4.24% |
| CCOC(=O)N1CCC(Nc2ccc(F)cc2)CC1 | inactive: 7.96% |
| O=C(NCC1(N2CCCCC2)CCCCC1)c1ccc(F)cc1 | inactive: 7.91% |
| O=P1(N(CCCl)CCCl)SCCCS1 | inactive: -7.03% |
| CCCCn1nnnc1C(c1cc2ccccc2o1)N1CCC(n2c(=O)[nH]c3ccccc32)CC1 (stereo not given) | inactive: 6.69% |
| CCCCOc1ccc(C(=O)NCC2(N3CCOCC3)CCCCC2)cc1 | inactive: -5.47% |
| O=c1[nH]c2ccccc2n1C1CCN(C(c2ccccc2)c2nnnn2C2CCCCC2)CC1 (stereo not given) | inactive: -17.4% |
| O=c1[nH]c2ccccc2n1C1CCN(C(c2cccc3ccccc23)c2nnnn2C2CCCC2)CC1 (stereo not given) | inactive: -20.9% |
| COc1cc(C(=O)NCC2(N(C)C)CCCCC2)ccc1OC(F)F | inactive: 3.61% |

| Structure (SMILES) | inhibition |
| --- | --- |
| CCOC(=O)N1CCC(Nc2cccc(C)c2)CC1 | inactive: 4.91% |
| CCCCn1nnnc1C(c1cccs1)N1CCC(n2c(=O)[nH]c3ccccc32)CC1 (stereo not given) | inactive: 5.73% |
| CCCCn1nnnc1C(CC)N1CCC(n2c(=O)[nH]c3ccccc32)CC1 (stereo not given) | inactive: 9% |
| O=C(NCC1(N2CCCCC2)CCCCC1)c1cccs1 | inactive: -0.77% |
| O=C(NCC1(N2CCCCC2)CCCCC1)c1ccc(=O)[nH]c1 | inactive: 6.64% |
| CCC(c1nnnn1C1CCCC1)N1CCC(n2c(=O)[nH]c3ccccc32)CC1 (stereo not given) | inactive: -7.24% |
| COc1ccc(C(=O)NCC2(N3CCCCC3)CCCCC2)c(OC)c1OC | inactive: -2.14% |
| CC(C)(C)OC(=O)N1CCC(N(C(=O)c2ccccc2)c2ccc(F)cc2)CC1 | inactive: 14.6% |
| COc1ccc(C(=O)NCC2(N3CCCCC3)CCCCC2)cc1 | inactive: 9.23% |
| Cc1cccc(NC2(C#N)CCN(Cc3ccccc3)CC2)c1 | inactive: -7.01% |
| CSc1ccccc1C(=O)NCC1(N2CCCCC2)CCCCC1 | inactive: 0.96% |
| O=C(NCC1(N2CCOCC2)CCCCC1)c1cc2ccccc2o1 | inactive: -4.06% |
| Cc1cc(C)cc(N(C(=O)c2ccccc2)C2CCN(C(=O)OC(C)(C)C)CC2)c1 | inactive: 13.4% |
| O=c1[nH]c2ccccc2n1C1CCN(C(c2ccccc2OC(F)(F)F)c2nnnn2C2CCCCC2)CC1 (stereo not given) | inactive: -3.42% |
| O=C(NCC1(N2CCCCC2)CCCCC1)c1ccc(Cl)nc1 | inactive: 9.1% |
| CCCCn1nnnc1C(c1ccc(OC)cc1)N1CCC(n2c(=O)[nH]c3ccccc32)CC1 (stereo not given) | inactive: 1.66% |
| CCOC(=O)N1CCC(Nc2ccc(OC)cc2)CC1 | inactive: -13.1% |
| COc1ccc(Cl)cc1C(=O)NCC1(N2CCOCC2)CCCCC1 | inactive: -1.39% |
| O=C(OC1CN2CCC1CC2)C1c2ccccc2Oc2ccccc21 (stereo not given) | inactive: -1.9% |
| O=c1[nH]c2ccccc2n1C1CCN(C(c2cc3ccccc3o2)c2nnnn2C2CCCCC2)CC1 (stereo not given) | inactive: -1.1% |
| N#CC1(Nc2ccccc2)CCN(Cc2ccccc2)CC1 | inactive: 7.15% |
| O=C(NCC1(N2CCCCC2)CCCCC1)c1ccc(Cl)s1 | inactive: -2.41% |
